Earlier results in patent US4230456A, “Element and assay for albumin” (Eastman Kodak Company, priority 1978, dated 1980).

Conditions: plasma protein

## Albumin: smallest and most abundant of plasma proteins
  half-life: four
